Experimental data taken from patent US5280014A, “Treatment of obesity and essential hypertension and related disorders” (Amylin Pharmaceuticals, Inc., priority 1991, dated 1994).

System: isolated soleus muscle from rats
Assay: amylin antagonist assay: incorporation of radiolabelled glucose into glycogen in isolated soleus muscle
Format: cell-based, rat
Details: 1000 μU/mL insulin, 20 nM amylin, antagonist 1 nM-10 μM
Description: Insulin was obtained as Humulin-R, 100 U/mL, recombinant human insulin (Eli Lilly, Indianapolis, Ind.). […] An antagonist assay was performed in vitro using the isolated soleus muscle from rats.
The right and left soleus muscles of 4-hour fasted rats were removed immediately after decapitation of the animals, divided in half and temporarily placed in physiological saline. Muscles were assigned to different treatment groups so that the 4 muscle pieces from each animal were evenly distributed among the 9 flasks representing the different assay conditions. […] Pharmacologically active agents were added to the 10mL of medium to result in the above stated concentrations and mixtures. […]
Dissolved glycogen was precipitated out by addition of 3 mL absolute ethanol and cooling to -20° C. overnight. […] The remaining glycogen was redissolved in water and scintillation fluid and counted for ^14 C.
From a knowledge of the specific activity of ^14 C-glucose in the 5.5 mM glucose of the incubation medium, and the total ^14 C counts remaining in the glycogen extracted from each muscle, it was possible to determine the net rate of glycogen synthesis over the final 60 minute incubation period. This was normalized per mass of muscle and expressed as μmoles of glucosyl units incorporated into glycogen per hour per gram of muscle. […]

CC(C)C[C@H](NC(=O)CNC(=O)[C@H](C)NC(=O)[C@H](CC(C)C)NC(=O)[C@H](CCCNC(=N)N)NC(=O)[C@H](Cc1c[nH]cn1)NC(=O)[C@@H](NC(=O)[C@@H](N)C(C)C)[C@@H](C)O)C(=O)N[C@@H](CC(C)C)C(=O)N[C@@H](CO)C(=O)N[C@@H](CCCNC(=N)N)C(=O)N[C@@H](CO)C(=O)NCC(=O)NCC(=O)N[C@H](C(=O)N[C@H](C(=O)N[C@@H](CCCCN)C(=O)N[C@@H](CC(N)=O)C(=O)N[C@@H](CC(N)=O)C(=O)N[C@@H](Cc1ccccc1)C(=O)N[C@H](C(=O)N1CCC[C@H]1C(=O)N[C@H](C(=O)N[C@@H](CC(N)=O)C(=O)N[C@H](C(=O)NCC(=O)N[C@@H](CO)C(=O)N[C@@H](CCCCN)C(=O)N[C@@H](C)C(=O)N[C@@H](Cc1ccccc1)C(N)=O)C(C)C)[C@@H](C)O)C(C)C)C(C)C)C(C)C [CGRP8-37, 8-37 human CGRP]
increment in the rate of glycogen synthesis from the amylin-inhibited level: about 115%
